Data from patent US9285319B2, “Nucleic acid base analogs with quenching and fluorescent activities and applications thereof” (RIKEN, priority 2010, dated 2016).
Read-outs that look alike come from different tables or passages of the source.

Chains of the proteins cited; added tags and fusions are not shown. Residues count along the entry.
UniProt P00582, 324-928 D355A/E357A limits assumed: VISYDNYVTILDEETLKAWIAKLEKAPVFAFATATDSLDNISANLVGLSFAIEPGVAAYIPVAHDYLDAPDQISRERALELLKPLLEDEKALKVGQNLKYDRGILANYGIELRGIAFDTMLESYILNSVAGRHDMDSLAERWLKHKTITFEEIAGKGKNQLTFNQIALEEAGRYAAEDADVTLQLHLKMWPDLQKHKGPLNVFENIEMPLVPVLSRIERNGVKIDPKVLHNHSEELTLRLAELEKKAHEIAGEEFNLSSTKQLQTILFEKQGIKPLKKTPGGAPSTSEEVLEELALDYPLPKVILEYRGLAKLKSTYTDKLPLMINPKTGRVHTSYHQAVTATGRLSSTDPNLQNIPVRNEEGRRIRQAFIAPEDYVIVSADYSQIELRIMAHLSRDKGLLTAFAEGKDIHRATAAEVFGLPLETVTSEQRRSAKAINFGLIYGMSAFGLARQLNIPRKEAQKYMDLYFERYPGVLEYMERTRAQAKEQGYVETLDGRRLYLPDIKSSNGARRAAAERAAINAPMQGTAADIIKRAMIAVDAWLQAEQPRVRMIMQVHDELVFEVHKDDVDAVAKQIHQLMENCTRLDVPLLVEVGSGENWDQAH

Target: Klenow fragment not having exonuclease activity (KF exo−) (Escherichia coli, UniProt P00582, D355A/E357A)
Settings: primer 5′-[…]; for Km / Vmax: 37° C., SD in parentheses

## O=P(O)(O)OP(=O)(O)OP(=O)(O)OC[C@H]1O[C@@H](n2cnc3c(-c4ccc(-c5cccs5)s4)ccnc32)C[C@@H]1O
Template N = A
  Efficiency (Vmax/KM): 1.5 × 10^5 % min^−1 M^−1
  Km: 5 µM
  Vmax: 0.73 (0.1) % min^−1
Template N = C
  Efficiency (Vmax/KM): 1.3 × 10^5 % min^−1 M^−1
  Km: 7.5 µM
  Vmax: 1.0 (0.2) % min^−1
Template N = G
  Efficiency (Vmax/KM): 2.6 × 10^5 % min^−1 M^−1
  Km: 3.6 µM
  Vmax: 0.93 (0.03) % min^−1
Template N = Pn
  Efficiency (Vmax/KM): 1.2 × 10^7 % min^−1 M^−1
  Km: 0.77 µM
  Vmax: 8.9 (3.0) % min^−1
Template N = T
  Efficiency (Vmax/KM): 3.5 × 10^5 % min^−1 M^−1
  Km: 6.2 µM
  Vmax: 2.2 (0.2) % min^−1
